Assay results taken from ChEMBL document CHEMBL1138582, “5-Aminopyrimidin-2-ylnitriles as cathepsin K inhibitors” (Bioorg Med Chem Lett, 2009).

Biological target: Cathepsin B (Homo sapiens, UniProt P07858)
Experiment: Inhibition of cathepsin B

CC(C)CNc1nc(C#N)nc(N2CCOCC2)c1N
IC50: > 10 µM
